Assay results taken from patent US8017350B2, “Glimepiride- and insulin-induced glycosylphosphatidylinositol-specific phospholipase C regulation” (Sanofi-Aventis Deutschland GmbH, priority 2004, dated 2011).
pIC50: −log10 of the molar value.

Experiments:
PI-PLC (B. cereus) = target: T1, PI-PLC (B. cereus) (Bacillus cereus, UniProt P14262); assay: PI-PLC (B. cereus) assay, AChE substrate, TX-114 partitioning; assay type: biochemical
T1 construct: purchased SigmalAldrich (Deisenhofen, Germany)
Procedure: (§1) GPI-PLD (rat serum) was assayed according to “Hari et al. (1997) Biochim. Biophys. Acta 1355: 293-302” by incubation with 10 μl of human placental aP solution (100 U/ml in 10 mM Hepes/NaOH, pH 7.0, 150 mM NaCl) in 100 μl of 200 mM Tris/maleate (pH 7.0) and 1% Nonidet P-40 for 10 min at 37° C. and subsequent termination of the reaction by addition of 0.4 ml of ice-cold stop buffer (10 mM Hepes/NaOH, pH 7.0, 150 mM NaCl, 0.1 mM MgCl2 and 0.01 mM zinc acetate). GPI-PLC (T. brucei) was assayed as described in “Mensa-Wilmot et al. (1995) Methods Enzymol. […]
(§2) Pelleted hc/lcDIGs (10-50 μg protein) or (G)PI-PLC reaction mixtures (0.5 ml) were separated into amphiphilic and hydrophilic proteins using partitioning between TX-114-enriched and depleted phases according to “Bordier, C., (1981) J. Biol, Chem. […]” by suspending in 1 ml of ice-cold TX-114 (1%), 25 mM Tris/HCl (pH 7.4), 144 mM NaCl or mixing with 0.5 ml of ice-cold TX-114 (2%), respectively. […] After re-extraction of the lower TX-114-enriched phase, aliquots of the pooled upper TX-114-depleted phase were measured for 5′-Nuc, aP and AChE activity or precipitated (15 polyethylene glycol 4000) for SDS-PAGE analysis. […]
(§3) FIG. 2: Potency of GPI-2350. […] The lipolytic activity was calculated as % of the control reaction in the absence of GPI-2350 (set at 100%). […]

GPI-PLC (T. brucei) = target: T2, GPI-PLC (T. brucei) (Trypanosoma brucei brucei, UniProt P09194); assay: GPI-PLC (T. brucei) assay, human placental aP substrate, TX-114 partitioning; assay type: biochemical
T2 construct: purchased Oxford Glycosystems (Oxford, UK)
Procedure: as §1, §2, §3

`CCCCCCCCCCCCP(=O)(O)O[C@H]1[C@H](O)[C@@H](O)[C@H](O)[C@@H](O)[C@@H]1F` [GPI-1793, 2-deoxy-2-fluoro-scyllo-inositol-1-O-dodecyl-phosphonic acid] gave a pIC50 (PI-PLC (B. cereus)) of 3.85 to 3.96, an inhibition at 1000 µM (PI-PLC (B. cereus); read-out: inhibition % at 1 mM) of 70% and a pIC50 (GPI-PLC (T. brucei)) of 4.46 to 4.60. It also gave an inhibition at 1000 µM (GPI-PLC (T. brucei); read-out: inhibition % at 1 mM) of 89%.
